Source: PubChem (several laboratories)
A selection: hits, their analogues and other compounds. The true share with any hit is near 0.91%.
iPSC survival up – enhancers of human iPSC single-cell survival | survival enhancement, % at 20 µM | AID 602274 | hiPSC single-cell survival, ATPlite luminescence; 100% = ROCK inhibitor wells, 0% = DMSO | 360,000 tested, 0.044% active; in the data active = survival enhancement above about 18%;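 note: cells exposed to compounds for 16 hours before the ATP read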
Statin myotox sup – suppression of simvastatin myotoxicity; C2C12 myotubes + simvastatin, ATP luminescence, 48 h; scaled: DMSO 0, geranylgeraniol control 100; rescue of ATP level, % at 7.49 µM; 330,000 tested, 0.78% active; AID 602340;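 active = mean ATP rescue above about 67%, or every replicate alone reaching that limit, limit read from the data, passing the limit was not always enough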;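 note: myotubes were challenged with 10 µM simvastatin during compound exposure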
FN deposition inh – fibronectin deposition inhibition | AH1F fibroblasts, Alexa488-fibronectin deposition fluorescence, overnight | inhibition, % at 12.6 µM | 350,000 tested, 0.086% active | AID 743247;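 active = mean inhibition across replicates of 30% or more, regardless of how many single replicates reach that level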
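Assay system: AH1F fibroblasts / Quantity: 10000 cells per well / Medium: DMEM plus 2% serum, read in PBS / Reagent: labelled fibronectin 24 nM / Dosing: single dose, pinned / Times: 1 h cell attachment, overnight exposure to compound and label / Signal: fluorescence, ex 485 nm, em 525 nm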
Yeast UUG start – modulators of start codon recognition fidelity in yeast. S. cerevisiae UUG-firefly luciferase reporter, luminescence/redox ratio. activity score, % at 18.7 µM. 0.13% of 350,000 active. AID 602363;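 active = replicate mean at a twofold rise or more, about +100% in these data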;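 also: firefly luciferase made from a UUG start codon reports start codon fidelity; reporter light over untreated wells divided by growth signal over untreated wells; some hits fall short of that in this replicate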
PGC1a acetyl inh – PGC1a acetylation modulation, inhibitor mode. inhibition, % at 15.6 µM. 350,000 tested, 0.17% active. U2OS PGC1a acetylation, AlphaScreen anti-acetyl-lysine; with virally co-expressed GCN5 acetyltransferase;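 active = every replicate shows inhibition of at least 40%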
Each line names hits and unclear results; the compound was inactive in the other large screens.

C[C@@H]1CN([C@@H](C)CO)C(=O)c2cccc(NS(=O)(=O)c3ccccc3)c2O[C@@H]1CN(C)Cc1ccc2c(c1)OCO2	none (no result: iPSC survival up, FN deposition inh)
COc1ccccc1NC(=O)COc1ccc(CO)cc1Cl	Statin myotox sup 75 (no result: FN deposition inh)
O=C(NC1c2ccccc2-c2ccccc21)c1ccco1	Statin myotox sup 120 (no result: FN deposition inh)
O=C(NC1CCCCC1NC(=O)c1ccco1)c1ccco1 (stereo unspecified)	none (no result: FN deposition inh, PGC1a acetyl inh)
N#Cc1cccc(C=C(C(=O)c2ccccc2)c2ccccc2)c1	none (no result: Statin myotox sup, Yeast UUG start, PGC1a acetyl inh)
CCCC(C)C(=O)Nc1cc(S(=O)(=O)N2CCCCC2)ccc1N1CCOCC1 (stereo unspecified)	none
CC(C)C(=O)Nc1cc(S(=O)(=O)N2CCOCC2)ccc1N1CCCCC1	Statin myotox sup 108 (no result: FN deposition inh)
C[C@@H]1CN([C@H](C)CO)C(=O)c2cc(NC(=O)Nc3cccc4ccccc34)ccc2O[C@H]1CN(C)C(=O)NC1CCCCC1	none (no result: iPSC survival up)
Cc1ccc(C)c(-c2csc(N)c2C(=O)OC(C)C)c1	none (no result: Statin myotox sup, FN deposition inh, Yeast UUG start)
Cc1cccc(-c2csc(N)c2C(=O)OC(C)C)c1	Statin myotox sup 116
Cc1cccc2c1cnn2C(=O)Nc1ccc(Br)cc1F	Statin myotox sup 99
Cc1ccc(NC(=O)n2ncc3c(C)cccc32)c(C)c1	none (no result: PGC1a acetyl inh)
CC(=O)N(C)C[C@H]1Oc2ncc(C#Cc3ccncc3)cc2C(=O)N([C@@H](C)CO)C[C@@H]1C	none (no result: iPSC survival up)
C#CCOc1c(Br)cc(/C=N\NC(=O)CN2CCOCC2)cc1OCC	Statin myotox sup 103 (no result: FN deposition inh)
CC(C)NC(=O)N(C)C[C@@H]1Oc2ccc(NS(=O)(=O)c3cccs3)cc2CC(=O)N([C@@H](C)CO)C[C@H]1C	none (no result: iPSC survival up, FN deposition inh)
C[C@H]1CN([C@@H](C)CO)S(=O)(=O)c2ccc(C#CC3CCCC3)cc2O[C@@H]1CN(C)C(=O)Nc1cc(F)ccc1F	none (no result: iPSC survival up, FN deposition inh)
Cn1cc([N+](=O)[O-])c(C(=O)Nc2nc(-c3ccc(Cl)cc3)cs2)n1	PGC1a acetyl inh 63 (no result: Statin myotox sup, FN deposition inh)
Cc1ccc(-c2csc(NC(=O)c3ccc([N+](=O)[O-])o3)n2)cc1	Statin myotox sup 91 (no result: PGC1a acetyl inh)
Cc1ccc(-c2nc(NC(=O)c3nn(C)cc3[N+](=O)[O-])sc2C)cc1C	PGC1a acetyl inh 91 (no result: FN deposition inh)
CCOC(=O)N(C)C[C@H]1OCc2ccccc2-c2c(n(C)c3ccccc23)C(=O)N([C@H](C)CO)C[C@H]1C	none (no result: iPSC survival up)
C[C@H](O)C#Cc1cnc2c(c1)C(=O)N([C@H](C)CO)C[C@@H](C)[C@H](CN(C)C(=O)c1ccc(F)cc1)O2	none (no result: iPSC survival up, FN deposition inh)
O=C(COC(=O)/C=C/c1cccc(Cl)c1)NCCC1=CCCCC1	none (no result: Statin myotox sup, Yeast UUG start, PGC1a acetyl inh)
O=C(COC(=O)/C=C/c1ccc(Cl)cc1)NCCC1=CCCCC1	FN deposition inh 32 (no result: Statin myotox sup, PGC1a acetyl inh)
CCN1C(=O)NC2=C(C(=O)c3ccccc32)C1c1ccccc1F (stereo unspecified)	Statin myotox sup 120
COCC(=O)N(C)C[C@H]1Oc2ncc(-c3ccc(C)cc3)cc2C(=O)N([C@@H](C)CO)C[C@H]1C	none (no result: iPSC survival up)
CCCN(C[C@H]1[C@@H](c2ccccc2)[C@H](CO)N1C(C)=O)C(=O)NC(C)C	none (no result: iPSC survival up)
O=C1C2C3c4ccccc4C(c4ccccc43)C2c2nc3ccccc3n21 (stereo unspecified)	Statin myotox sup 115 (no result: FN deposition inh)
COC(=O)C1=C(C)N(C)C(=NCc2ccc(OC)cc2)NC1c1cccc(F)c1 (stereo unspecified)	none (no result: iPSC survival up, Statin myotox sup, Yeast UUG start, PGC1a acetyl inh)
Cc1cccc(C)c1Nc1nnc(SCc2cc([N+](=O)[O-])cc3c2OCOC3)s1	Statin myotox sup 244 (no result: FN deposition inh)
C[C@H]1CCCCO[C@H](CN(C)S(=O)(=O)c2ccccc2)[C@@H](C)CN([C@@H](C)CO)C(=O)c2cc(NS(=O)(=O)c3ccc(Cl)cc3)ccc2O1	none (no result: iPSC survival up, Statin myotox sup)
CCCCOC(=O)Cn1c(=O)c2c(nc3n2CCCCN3c2ccc(C)cc2)n(C)c1=O	Statin myotox sup 103 (no result: FN deposition inh)
C[C@@H]1CN([C@@H](C)CO)C(=O)Cc2cc(NS(=O)(=O)c3ccccc3)ccc2O[C@@H]1CN(C)C(=O)Nc1ccccc1	none (no result: iPSC survival up, FN deposition inh)
CN(C)c1ncnc2c1ccn2C1OC(CO)C(O)C1O (stereo unspecified)	PGC1a acetyl inh 52
O=C(c1ccccc1Cl)N1CCNCC1	PGC1a acetyl inh 67 (no result: Statin myotox sup, FN deposition inh, Yeast UUG start)
Cc1ccc(S(=O)(=O)N(C)C[C@H]2Oc3ccc(NS(=O)(=O)c4ccc(Cl)cc4)cc3C(=O)N([C@@H](C)CO)C[C@H]2C)cc1	none (no result: iPSC survival up, FN deposition inh, Yeast UUG start)
Cc1nc2nc(COc3ccccc3)nn2c(C)c1Cl	Statin myotox sup 73 (no result: FN deposition inh)
Cc1nc2nc(Cc3ccccc3)nn2c(C)c1Cl	none
O=C1C=C(NCc2ccc(Cl)c(Cl)c2)C2(CCCCC2)O1	Statin myotox sup 142 (no result: FN deposition inh)
O=C1C=C(NCc2ccccc2)C2(CCCCC2)O1	none
C[C@@H](NC(=O)C[C@H]1C[C@H]2c3cc(NS(=O)(=O)c4ccc(F)cc4)ccc3O[C@H]2[C@@H](CO)O1)c1ccccc1	none (no result: iPSC survival up, Yeast UUG start)
Cc1c(OC(C)C(=O)NCC2CCC(C(=O)O)CC2)ccc2c3c(c(=O)oc12)CCCC3 (stereo unspecified)	Statin myotox sup 95
Cc1cc(=O)oc2c(C)c(OC(C)C(=O)NCC3CCC(C(=O)O)CC3)ccc12 (stereo unspecified)	none (no result: FN deposition inh)
CCCOc1ccc(/C=C/C(=O)O)cc1OC	PGC1a acetyl inh 62 (no result: FN deposition inh)
CC(=O)N1[C@@H]2CN(S(C)(=O)=O)C[C@H]1C2c1ccc(-c2ccc(F)cc2)cc1 (stereo partly specified)	none (no result: iPSC survival up, Statin myotox sup, Yeast UUG start, PGC1a acetyl inh)
CC(=O)Nc1nc2n(n1)C(c1ccc(F)cc1)C=C(c1ccccc1)N2 (stereo unspecified)	Statin myotox sup 133 (no result: FN deposition inh)
CC(=O)Nc1nc2n(n1)C(c1ccccc1)C=C(c1ccccc1)N2 (stereo unspecified)	none (no result: FN deposition inh)
CC(=O)Oc1cccc(/C=c2\sc3nc(-c4ccco4)nn3c2=O)c1	none (no result: Statin myotox sup, FN deposition inh, Yeast UUG start)
CCCOc1ccc(/C=c2\sc3nc(-c4ccco4)nn3c2=O)cc1OCC	Statin myotox sup 98 (no result: FN deposition inh)
CC(C)CC(NC(=O)c1ccc(C#CC(C)(C)O)s1)C(=O)O (stereo unspecified)	none (no result: Statin myotox sup, Yeast UUG start)
CC(C)(O)C#Cc1ccc(C(=O)NC(CCCNC(N)=O)C(=O)O)s1 (stereo unspecified)	PGC1a acetyl inh 82
Cc1ccc(-n2[nH]c(C)c(/C=N/c3ccccn3)c2=O)cc1	none
Cc1ccc(-n2[nH]c(C)c(C=Nc3cc(C)ccn3)c2=O)cc1	Statin myotox sup 89
C[C@H](CO)N1C[C@H](C)[C@H](CN(C)C(=O)c2ccncc2)OCCCC[C@H](C)Oc2ccc(NC(=O)c3ccncc3)cc2C1=O	none (no result: iPSC survival up, Statin myotox sup, Yeast UUG start)
Cc1ccc(-n2ccc(=O)c(-c3ccnc(SCc4cccc(Cl)c4)n3)n2)cc1	Statin myotox sup 84 (no result: FN deposition inh)
CCn1c(-c2nn(-c3ccc(C)cc3)ccc2=O)n[nH]c1=S	none (no result: Statin myotox sup, Yeast UUG start)
CC(=O)Nc1nnc(SCc2ccc(F)cc2)s1	none
CC(=O)Nc1nnc(SCc2cccc(F)c2)s1	Statin myotox sup 87 (no result: FN deposition inh)
COc1ccc(S(=O)(=O)N(C)C[C@@H]2OCCCC[C@H](C)Oc3ccc(NC(=O)C4CCCCC4)cc3C(=O)N([C@H](C)CO)C[C@@H]2C)cc1	none (no result: iPSC survival up, Statin myotox sup)
Cc1cc(NC(=O)Nc2cc(C)nn2-c2ccccc2)n(-c2ccccc2)n1	none (no result: FN deposition inh)
